{"source": "PubChem BioAssay AID248", "about": "(DTP/NCI, 2004)", "system": "L1210 leukemia ip in BDF1 mice, survival T/C", "assay": "NCI In Vivo Anticancer Drug Screen. Data for tumor model L1210 Leukemia (intraperitoneal) in B6D2F1 (BDF1) mice", "details": "higher = longer survival", "note": "Where “and” joins values, the source holds several entries; their conditions need not be identical. Equal values may be shown once. Inconclusive results and toxic doses are left out.", "data": [{"molecule": "CN(Cc1cnc2nc(N)nc(N)c2n1)c1ccc(C(=O)N[C@@H](CCC(=O)O)C(=O)O)cc1", "values": [{"measurement": "T/C", "setting": "endpoint: mean survival time, dose: 0.04 mg/kg/injection, schedule: Q01DX Z (ip), vehicle: saline", "result": "106 % of control"}, {"measurement": "T/C", "setting": "endpoint: mean survival time, dose: 0.05 mg/kg/injection, schedule: Q03HX008 (ip), vehicle: sodium bicarbonate", "result": "103 % of control"}, {"measurement": "T/C", "setting": "endpoint: mean survival time, dose: 0.05 mg/kg/injection, schedule: Q## X008 (other), vehicle: sodium bicarbonate", "result": "103 % of control"}, {"measurement": "T/C", "setting": "endpoint: mean survival time, dose: 0.13 mg/kg/injection, schedule: Q03HX008 (ip), vehicle: other", "result": "103 % of control"}, {"measurement": "T/C", "setting": "endpoint: mean survival time, dose: 0.25 mg/kg/injection, schedule: Q01DX Z (sc), vehicle: saline", "result": "121 % of control"}, {"measurement": "T/C", "setting": "endpoint: mean survival time, dose: 0.49 mg/kg/injection, schedule: Q03HX002 (ip), vehicle: other", "result": "103 % of control"}, {"measurement": "T/C", "setting": "endpoint: mean survival time, dose: 0.49 mg/kg/injection, schedule: Q03HX007 (ip), vehicle: other", "result": "103 % of control"}, {"measurement": "T/C", "setting": "endpoint: mean survival time, dose: 0.73 mg/kg/injection, schedule: Q03HX008 (ip), vehicle: other", "result": "121 % of control"}, {"measurement": "T/C", "setting": "endpoint: mean survival time, dose: 0.75 mg/kg/injection, schedule: Q## X018 (ip), vehicle: other", "result": "114 % of control"}, {"measurement": "T/C", "setting": "endpoint: mean survival time, dose: 0.9 mg/kg/injection, schedule: Q04DX003 (ip), vehicle: other", "result": "106 % of control"}, {"measurement": "T/C", "setting": "endpoint: mean survival time, dose: 1.0 mg/kg/injection, schedule: Q01DX001 (ip), vehicle: saline", "result": "103 % of control"}, {"measurement": "T/C", "setting": "endpoint: mean survival time, dose: 1.0 mg/kg/injection, schedule: Q01DX006 (iv), vehicle: saline", "result": "121 % of control"}, {"measurement": "T/C", "setting": "endpoint: mean survival time, dose: 1.0 mg/kg/injection, schedule: Q01DX009 (oral), vehicle: other", "result": "114 % of control"}, {"measurement": "T/C", "setting": "endpoint: mean survival time, dose: 1.0 mg/kg/injection, schedule: Q01DX Z (ip), vehicle: other", "result": "211 % of control"}, {"measurement": "T/C", "setting": "endpoint: mean survival time, dose: 1.08 mg/kg/injection, schedule: Q01DX009 (ip), vehicle: sodium bicarbonate", "result": "172 % of control"}, {"measurement": "T/C", "setting": "endpoint: mean survival time, dose: 1.08 mg/kg/injection, schedule: Q01DX Z (sc), vehicle: other", "result": "172 % of control"}, {"measurement": "T/C", "setting": "endpoint: mean survival time, dose: 1.1 mg/kg/injection, schedule: Q03HX004 (ip), vehicle: other", "result": "106 % of control"}, {"measurement": "T/C", "setting": "endpoint: mean survival time, dose: 1.5 mg/kg/injection, schedule: Q01DX015 (ip), vehicle: carboxymethylcellulose (CMC)", "result": "216 % of control"}, {"measurement": "T/C", "setting": "endpoint: mean survival time, dose: 1.5 mg/kg/injection, schedule: Q01DX Z (ip), vehicle: other", "result": "211 % of control"}, {"measurement": "T/C", "setting": "endpoint: mean survival time, dose: 1.62 mg/kg/injection, schedule: Q01DX001 (ip), vehicle: other", "result": "106 % of control"}, {"measurement": "T/C", "setting": "endpoint: mean survival time, dose: 1.87 mg/kg/injection, schedule: Q01DX015 (ip), vehicle: water", "result": "216 % of control"}, {"measurement": "T/C", "setting": "endpoint: mean survival time, dose: 2.0 mg/kg/injection, schedule: Q01DX009 (ip), vehicle: sodium bicarbonate", "result": "162 % of control"}, {"measurement": "T/C", "setting": "endpoint: mean survival time, dose: 2.16 mg/kg/injection, schedule: Q## X032 (ip), vehicle: water", "result": "162 % of control"}, {"measurement": "T/C", "setting": "endpoint: mean survival time, dose: 2.25 mg/kg/injection, schedule: Q01DX015 (ip), vehicle: water", "result": "211 % of control"}, {"measurement": "T/C", "setting": "endpoint: mean survival time, dose: 2.82 mg/kg/injection, schedule: Q02DX005 (ip), vehicle: other", "result": "216 % of control"}, {"measurement": "T/C", "setting": "endpoint: mean survival time, dose: 3.0 mg/kg/injection, schedule: Q01DX009 (ip), vehicle: saline + Tween-80 + alkali", "result": "103 % of control"}, {"measurement": "T/C", "setting": "endpoint: mean survival time, dose: 3.0 mg/kg/injection, schedule: Q01DX009 (ip), vehicle: water", "result": "211 % of control"}, {"measurement": "T/C", "setting": "endpoint: mean survival time, dose: 3.0 mg/kg/injection, schedule: Q01DX017 (ip), vehicle: other", "result": "216 % of control"}, {"measurement": "T/C", "setting": "endpoint: mean survival time, dose: 3.38 mg/kg/injection, schedule: Q01DX Z (ip), vehicle: carboxymethylcellulose (CMC)", "result": "151 % of control"}, {"measurement": "T/C", "setting": "endpoint: mean survival time, dose: 5.3 mg/kg/injection, schedule: Q01DX007 (ip), vehicle: other", "result": "153 % of control"}, {"measurement": "T/C", "setting": "endpoint: mean survival time, dose: 6.0 mg/kg/injection, schedule: Q01DX003 (ip), vehicle: other", "result": "172 % of control"}, {"measurement": "T/C", "setting": "endpoint: mean survival time, dose: 6.0 mg/kg/injection, schedule: Q02DX008 (ip), vehicle: water", "result": "211 % of control"}, {"measurement": "T/C", "setting": "endpoint: mean survival time, dose: 6.0 mg/kg/injection, schedule: Q03HX007 (ip), vehicle: other", "result": "106 % of control"}, {"measurement": "T/C", "setting": "endpoint: mean survival time, dose: 7.0 mg/kg/injection, schedule: Q07DX003 (ip), vehicle: saline", "result": "121 % of control"}, {"measurement": "T/C", "setting": "endpoint: mean survival time, dose: 8.0 mg/kg/injection, schedule: Q01DX Z (im), vehicle: saline", "result": "153 % of control"}, {"measurement": "T/C", "setting": "endpoint: mean survival time, dose: 12.0 mg/kg/injection, schedule: Q03DX006 (ip), vehicle: saline", "result": "172 % of control"}, {"measurement": "T/C", "setting": "endpoint: mean survival time, dose: 13.0 mg/kg/injection, schedule: Q03HX003 (ip), vehicle: other", "result": "153 % of control"}, {"measurement": "T/C", "setting": "endpoint: mean survival time, dose: 13.5 mg/kg/injection, schedule: Q## X008 (ip), vehicle: other", "result": "106 % of control"}, {"measurement": "T/C", "setting": "endpoint: mean survival time, dose: 15.0 mg/kg/injection, schedule: Q04DX004 (ip), vehicle: sodium bicarbonate", "result": "172 % of control"}, {"measurement": "T/C", "setting": "endpoint: mean survival time, dose: 16.0 mg/kg/injection, schedule: Q08DX002 (ip), vehicle: other", "result": "121 % of control"}, {"measurement": "T/C", "setting": "endpoint: mean survival time, dose: 18.0 mg/kg/injection, schedule: Q## X004 (ip), vehicle: water", "result": "162 % of control"}, {"measurement": "T/C", "setting": "endpoint: mean survival time, dose: 20.0 mg/kg/injection, schedule: Q01DX001 (ip), vehicle: other", "result": "121 % of control"}, {"measurement": "T/C", "setting": "endpoint: mean survival time, dose: 20.0 mg/kg/injection, schedule: Q04DX003 (ip), vehicle: sodium bicarbonate", "result": "114 % of control"}, {"measurement": "T/C", "setting": "endpoint: mean survival time, dose: 20.0 mg/kg/injection, schedule: Q12HX003 (ip), vehicle: other", "result": "106 % of control"}, {"measurement": "T/C", "setting": "endpoint: mean survival time, dose: 24.0 mg/kg/injection, schedule: Q03DX006 (ip), vehicle: saline", "result": "211 % of control"}, {"measurement": "T/C", "setting": "endpoint: mean survival time, dose: 30.0 mg/kg/injection, schedule: Q01DX002 (ip), vehicle: other", "result": "153 % of control"}, {"measurement": "T/C", "setting": "endpoint: mean survival time, dose: 35.0 mg/kg/injection, schedule: Q## X004 (ip), vehicle: water", "result": "162 % of control"}, {"measurement": "T/C", "setting": "endpoint: mean survival time, dose: 39.0 mg/kg/injection, schedule: Q01DX001 (ip), vehicle: water", "result": "151 % of control"}, {"measurement": "T/C", "setting": "endpoint: mean survival time, dose: 45.0 mg/kg/injection, schedule: Q04DX003 (ip), vehicle: other", "result": "153 % of control"}, {"measurement": "T/C", "setting": "endpoint: mean survival time, dose: 45.0 mg/kg/injection, schedule: Q04DX004 (ip), vehicle: other", "result": "153 % of control"}, {"measurement": "T/C", "setting": "endpoint: mean survival time, dose: 58.0 mg/kg/injection, schedule: Q01DX001 (ip), vehicle: water", "result": "153 % of control"}, {"measurement": "T/C", "setting": "endpoint: mean survival time, dose: 60.0 mg/kg/injection, schedule: Q04DX004 (ip), vehicle: other", "result": "162 % of control"}, {"measurement": "T/C", "setting": "endpoint: mean survival time, dose: 64.0 mg/kg/injection, schedule: Q01DX001 (ip), vehicle: other", "result": "121 % of control"}, {"measurement": "T/C", "setting": "endpoint: mean survival time, dose: 64.0 mg/kg/injection, schedule: Q01DX001 (oral), vehicle: other", "result": "103 % of control"}, {"measurement": "T/C", "setting": "endpoint: mean survival time, dose: 75.0 mg/kg/injection, schedule: Q## X004 (ip), vehicle: water", "result": "216 % of control"}, {"measurement": "T/C", "setting": "endpoint: mean survival time, dose: 100.0 mg/kg/injection, schedule: Q03HX002 (ip), vehicle: other", "result": "121 % of control"}, {"measurement": "T/C", "setting": "endpoint: mean survival time, dose: 160.0 mg/kg/injection, schedule: Q01DX001 (ip), vehicle: saline", "result": "114 % of control"}, {"measurement": "T/C", "setting": "endpoint: mean survival time, dose: 375.0 micrograms/kg/injection, schedule: Q01DX009 (ip), vehicle: sodium bicarbonate", "result": "114 % of control"}, {"measurement": "T/C", "setting": "endpoint: mean survival time, dose: 750.0 micrograms/kg/injection, schedule: Q01DX009 (ip), vehicle: Klucel (hydroxypropylcellulose) (HPC)", "result": "153 % of control"}, {"measurement": "T/C", "setting": "endpoint: mean survival time, dose: 1500.0 micrograms/kg/injection, schedule: Q01DX009 (ip), vehicle: Klucel (hydroxypropylcellulose) (HPC)", "result": "151 % of control"}, {"measurement": "T/C", "setting": "endpoint: mean survival time, dose: 3000.0 micrograms/kg/injection, schedule: Q01DX009 (ip), vehicle: Klucel (hydroxypropylcellulose) (HPC)", "result": "151 % of control and 153 % of control"}, {"measurement": "T/C", "setting": "endpoint: mean survival time, dose: 3000.0 micrograms/kg/injection, schedule: Q01DX009 (ip), vehicle: sodium bicarbonate", "result": "121 % of control"}, {"measurement": "T/C", "setting": "endpoint: median survival time, dose: 0.39 mg/kg/injection, schedule: Q01DX009 (ip), vehicle: sodium bicarbonate", "result": "153 % of control"}, {"measurement": "T/C", "setting": "endpoint: median survival time, dose: 0.75 mg/kg/injection, schedule: Q01DX017 (ip), vehicle: other", "result": "211 % of control"}, {"measurement": "T/C", "setting": "endpoint: median survival time, dose: 1.08 mg/kg/injection, schedule: Q01DX009 (ip), vehicle: other", "result": "162 % of control"}, {"measurement": "T/C", "setting": "endpoint: median survival time, dose: 2.5 mg/kg/injection, schedule: Q01DX009 (ip), vehicle: other", "result": "211 % of control"}, {"measurement": "T/C", "setting": "endpoint: median survival time, dose: 3.0 mg/kg/injection, schedule: Q01DX033 (ip), vehicle: sodium bicarbonate", "result": "162 % of control"}, {"measurement": "T/C", "setting": "endpoint: median survival time, dose: 50.0 mg/kg/injection, schedule: Q04DX003 (ip), vehicle: saline", "result": "172 % of control"}]}]}
